Values quoted from earlier work as cited in US20260174880A1.

Legend:
[1] = biological target: T1, PDK1 (Homo sapiens, UniProt O15530); settings: read-out: AC…; the 35th table; cited from earlier work
[2] = biological target: T1, PDK1; settings: cited from earlier work; for T…: the 35th table c7

Row | Structure (SMILES) | EC50 [1] | T… [2] | …H… ([2]; the 35th table c9)
1 | O=C(O)/C=C(/CCc1ccc(F)cc1)c1ccccc1 | 41 µM | – | –
2 | O=C(O)/C=C(/CCc1cccc(Cl)c1)c1ccccc1 | 9.5 µM | – | –
3 | O=C(O)/C=C(/CCc1c[nH]c2ccccc12)c1ccccc1 | 7.6 µM | 2.60 kcal/mol | 80.8%
4 | O=C(O)/C=C(/CCc1ccc(C(F)(F)F)cc1)c1ccccc1 | 7.1 µM | – | –
5 | O=C(O)/C=C(/CCc1ccc(Br)cc1)c1ccccc1 | 9.8 µM | 3.20 kcal/mol | –
